# Measured values: patent publication US12234248B2, “Co-crystal compounds comprising lithium ions and isonicotinamide” (UNIVERSITY OF LIMERICK, priority 2017, dated 2025)
# Test: Stability of crystalline material under warm humid conditions (40° C., 75% relative humidity), PXRD before and after
# Format: physicochemical
# Settings: stored at 40° C., stable = retained crystal form for at least two weeks by PXRD
# Description: The stability of these compounds under warm humid conditions was assessed as follows:
# The crystalline material was stored at 40° C. in an atmosphere of 75% relative humidity.
# Compounds were classed as stable if they retained their crystal form for at least two weeks as verified by examination of PXRD patterns collected before and after exposure to humidity.
# It can be seen that the pattern obtained after 2 months at 75% relative humidity and 40° C. (upper trace) in this case is different.
row,Substance,Stable?
1,[(Li(camphorsulfonate)(L-proline))2](water)]n [Compound 34],No
2,[Li(salicylate)(4-hydroxyproline)]n [Compound 13],Yes
3,[Li4(salicylate)2(water)2]n [Compound 24],No
4,[Li2(tartrate)(L-proline)(water)2]n [Compound 20],No
